This test addresses 72 kDa type IV collagenase (Homo sapiens, UniProt P08253). The experiment in a line: Inhibition of human Matrix metalloprotease-2.

By UniProt entry, the sequences of proteins in these tests, tags left out. Where a name states a change or a piece, a line headed by the entry shows the natural chain unless it says otherwise.
UniProt P08253: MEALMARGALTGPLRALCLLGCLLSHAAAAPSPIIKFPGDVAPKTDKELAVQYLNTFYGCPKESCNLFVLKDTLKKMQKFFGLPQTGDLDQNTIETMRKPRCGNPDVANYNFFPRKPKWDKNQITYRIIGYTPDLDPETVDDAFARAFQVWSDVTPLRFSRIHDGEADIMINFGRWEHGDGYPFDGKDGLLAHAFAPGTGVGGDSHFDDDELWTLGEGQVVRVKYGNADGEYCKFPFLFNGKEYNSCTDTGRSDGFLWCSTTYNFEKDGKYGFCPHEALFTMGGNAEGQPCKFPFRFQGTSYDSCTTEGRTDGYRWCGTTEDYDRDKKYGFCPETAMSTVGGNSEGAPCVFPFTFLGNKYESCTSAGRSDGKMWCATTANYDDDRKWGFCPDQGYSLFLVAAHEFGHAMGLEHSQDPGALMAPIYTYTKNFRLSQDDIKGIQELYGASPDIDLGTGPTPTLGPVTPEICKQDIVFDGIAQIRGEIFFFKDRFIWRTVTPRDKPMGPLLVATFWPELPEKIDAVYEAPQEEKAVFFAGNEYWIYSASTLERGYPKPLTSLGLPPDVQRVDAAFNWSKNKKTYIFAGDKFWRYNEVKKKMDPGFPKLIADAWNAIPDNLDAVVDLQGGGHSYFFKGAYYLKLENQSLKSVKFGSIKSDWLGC

For orientation: Ki means the dissociation constant of the complex between target and ligand, obtained from inhibition or displacement. Read a low Ki as higher affinity.

Regarding `CC(C)C(NS(=O)(=O)c1ccc(-c2ccc(Br)cc2)cc1)C(=O)O` (stereo unspecified), the affinity, expressed as Ki, was 2000 nM.
